This is a selection; strong and weak results do not stand in their true shares. Potency and affinity values are given separately. Active and inactive are the calls of the source.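 The calls were made as follows: active = inhibition of at least 50% with at least 30 cells and total cytoplasm GFP at most 10,000,000; inconclusive = under 30 cells or total GFP of 10,000,000 plus; inactive = the rest.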
The molecules below were run against G-protein coupled receptor 35 (Homo sapiens) (UniProt Q9HC97) (assay: inhibition of zaprinast-stimulated GPR35 beta-arrestin translocation – imaging, U2OS, beta-arrestin-GFP, zaprinast agonist, primary screen (AID 2058)). Conditions: zaprinast antagonism, at 10 µM, active compounds read high.

The chains behind the UniProt entries cited, without tags or fusion partners.
UniProt Q9HC97, whole entry: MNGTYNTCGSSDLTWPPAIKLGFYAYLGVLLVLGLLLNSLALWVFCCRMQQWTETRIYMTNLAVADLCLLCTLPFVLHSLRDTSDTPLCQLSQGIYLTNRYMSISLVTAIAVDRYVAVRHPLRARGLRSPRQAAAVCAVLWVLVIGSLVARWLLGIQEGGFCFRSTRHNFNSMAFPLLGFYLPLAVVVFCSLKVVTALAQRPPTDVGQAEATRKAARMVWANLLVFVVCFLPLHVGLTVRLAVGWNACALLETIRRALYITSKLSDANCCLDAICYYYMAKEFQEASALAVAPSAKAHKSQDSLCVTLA

Compound	inhibition
CCCOc1ccc(C(=O)NCC2(N(C)C)CCCCC2)cc1OC	inactive: 23.3%
CC(C)c1ccc(NC2CCN(C(=O)OC(C)(C)C)CC2)cc1	inactive: -1.4%
COc1ccc(CN(CCCl)CCCl)cc1Cl	inactive: -1%
CN(C)c1cccc(C(=O)NCC2(N3CCCCC3)CCCCC2)c1	inactive: -0.2%
COc1cc(OC)c(C(=O)NCC2(N(C)C)CCCCC2)cc1OC	inactive: -11.2%
O=C(NCC1(N2CCCCC2)CCCCC1)c1cccc(C(F)(F)F)c1	inactive: -3.7%
O=C(NCC1(N2CCOCC2)CCCCC1)c1cc(=O)[nH]c2ccccc12	inactive: -1.1%
COc1cc(C(=O)NCC2(N3CCCCC3)CCCCC2)ccc1OC(F)F	inactive: -3.8%
COc1ccc(NC2CCN(C(=O)OC(C)(C)C)CC2)cc1	inactive: 22.2%
CN1CCN(CCOC(=O)C(O)(c2ccccc2)c2ccccc2)CC1	inactive: 4%
O=C(NCC1(N2CCCCC2)CCCCC1)c1ccc(OC(F)F)cc1	inactive: -3.7%
CCN1CCC(Nc2ccc(Cl)cc2)CC1	inactive: 12.7%
N#CC1(Nc2ccccc2)CCN(CCc2ccccc2)CC1	inactive: 15.3%
O=C(NCC1(N2CCCCC2)CCCCC1)c1cccc([N+](=O)[O-])c1	inactive: 7.7%
COc1cc(C(=O)NCC2(N(C)C)CCCCC2)ccc1OC(F)F	inactive: 3.6%
CCOC(=O)N1CCC(Nc2cccc(C)c2)CC1	inactive: 3.6%
Cc1ccc(OCC(C)C)c(CN(CCCl)CCCl)c1	inactive: 4.8%
CCOc1ccc(C)cc1CN(CCCl)CCCl	inactive: -6.4%
O=C(NCC1(N2CCCCC2)CCCCC1)c1ccc(F)cc1	inactive: -3.1%
CCOC(=O)N1CCC(Nc2ccc(F)cc2)CC1	inactive: 8.8%
COc1ccc(NC2CCN(CCc3ccccc3)CC2)c(OC)c1	inactive: 3.8%
Cc1cc(C)cc(N(C(=O)c2ccccc2)C2CCN(C(=O)OC(C)(C)C)CC2)c1	inactive: 24.9%
O=C(NCC1(N2CCOCC2)CCCCC1)c1cc2ccccc2o1	inactive: -10.9%
O=C(OC1CN2CCC1CC2)C1c2ccccc2Oc2ccccc21 (centres undefined)	inactive: 7.9%
N#CC1(Nc2ccccc2)CCN(Cc2ccccc2)CC1	inactive: 12.2%
CCOC(=O)N1CCC(Nc2ccc(OC)cc2)CC1	inactive: -9.8%
COc1ccc(C(=O)NCC2(N3CCCCC3)CCCCC2)cc1	inactive: -0.1%

Compound	inhibition
CC(C)(C)OC(=O)N1CCC(N(C(=O)c2ccccc2)c2ccc(F)cc2)CC1	inactive: -10.1%
COc1ccc(C(=O)NCC2(N3CCCCC3)CCCCC2)c(OC)c1OC	inactive: -14.1%
O=C(NCC1(N2CCCCC2)CCCCC1)c1ccc(=O)[nH]c1	inactive: -10.5%
CSc1ccccc1C(=O)NCC1(N2CCCCC2)CCCCC1	inactive: -13.7%
COc1cccc(C(=O)N(c2cc(C)cc(C)c2)C2CCN(C(=O)OC(C)(C)C)CC2)c1	inactive: -15.6%
COc1cc(OC)cc(C(=O)NCC2(N3CCOCC3)CCCCC2)c1	inactive: -4.6%
CCC(CO)(C(=O)OC1CN2CCC1CC2)c1ccccc1 (centres undefined)	inactive: -15.2%
CN1CCC(Nc2ccc(Cl)cc2)CC1	inactive: -4.5%
CCCOc1ccc(C)cc1CN(CCCl)CCCl	inactive: -10.6%
CCOc1ncccc1C(=O)NCC1(N2CCOCC2)CCCCC1	inactive: 5.7%
CN1CCC(Nc2ccc(F)c(Cl)c2)CC1	inactive: 2.1%
CC(C)(C)OC(=O)N1CCC(Nc2ccccc2)CC1	inactive: -6.4%
O=C(O)C1(Nc2ccccc2)CCN(Cc2ccccc2)CC1	inactive: 8.8%
CCCOc1ccc(C(=O)NCC2(N(C)C)CCCCC2)cc1	inactive: 2%
CCN1CCC(Nc2cccc(F)c2)CC1	inactive: -10.2%
CN(C)c1ccc(C(=O)NCC2(N3CCCCC3)CCCCC2)cc1	inactive: 15.9%
COc1cc(OC)cc(C(=O)NCC2(N3CCCCC3)CCCCC2)c1	inactive: 5.2%
Fc1ccccc1NC1CCN(Cc2ccccc2)CC1	inactive: -6%
CN(C)C1(CNC(=O)c2cccc(C#N)c2)CCCCC1	inactive: 11.2%
c1ccc(CN2CCC(Nc3ccccc3)CC2)cc1	inactive: 4%
CCCN1CCC(Nc2cc(OC)cc(OC)c2)CC1	inactive: 8.5%
N#Cc1ccc(C(=O)NCC2(N3CCCCC3)CCCCC2)cc1	inactive: 10.5%
CC(C)(C)OC(=O)N1CCC(N(C(=O)c2ccccc2)c2ccc(Cl)cc2)CC1	inactive: 10.6%
CCOC(=O)N1CCC(Nc2ccc(C)cc2)CC1	inactive: -7.9%
N/C(=N\O)c1c(N)no[n+]1[O-]	inactive: 13.9%
O=C(OC1CN2CCC1CC2)C1c2ccccc2C=Cc2ccccc21 (centres undefined)	inactive: 5.5%
COc1ccc(C(=O)NCC2(N3CCOCC3)CCCCC2)cc1OC	inactive: -11%
